HCMV NEC inh: cytomegalovirus nuclear egress complex inhibition; HTRF UL50-UL53 interaction, normalized percent inhibition; inhibition, % (test concentration not listed); hit rate 0.15% among 190,000; AID 1918969; in the data active means inhibition above about 27%, passing the limit was not always enough
GIV-Gai inh: inhibitors of GIV peptide binding to Galpha-i3, primary screen, biochemical, fluorescence polarization, FITC-GIV GBA peptide, rat Galphai3 | 90 min; stronger effect = lower value; scaled: aluminum fluoride 0%, vehicle 100% | AID 1224905, 2016 | 210,000 compounds, 0.42% hits | percent of control (FP), % (concentration not given with the values) | Guanine nucleotide-binding protein G(i) subunit alpha-3 (Rattus norvegicus), P08753;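 active = replicate mean at 85% of control or lower, very high polarization wells dropped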;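 note: wells of about 15 µL received 100 nL stock; the first replicate is given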
GIV Gai FP conf: GIV-Galpha-i3 inhibition, FP confirmation. hit rate 38% among 580. AID 1259350. shares compounds with GIV-Gai inh. fluorescence polarization, mP at 100 µM. FITC-GIV peptide binding to Galphai3, fluorescence polarization; stronger effect = lower value;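 active means inhibition score of 15 or more, meaning 100 minus mean polarization as percent of control over three replicates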
GIV-Gai AS conf: confirmation of inhibitors of GIV binding to human Galpha-i3 | shares compounds with GIV-Gai inh | hit rate 39% among 580 | AID 1259351 | AlphaScreen counts at 100 µM | AlphaScreen Galphai3-GIV binding, purified proteins, 90 min; stronger effect = lower value;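 active means inhibition score at or above a set limit, where the score is 100 minus the three-replicate mean percent of control signal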
Numbers without * were called inactive. Compounds with a hit are over-represented: about 0.46% of the library has one in this group of screens.

By UniProt entry, the sequences of proteins in these tests, tags left out.
Guanine nucleotide-binding protein G(i) subunit alpha-3 (Rattus norvegicus), P08753, UniProt P08753, whole entry, looked up: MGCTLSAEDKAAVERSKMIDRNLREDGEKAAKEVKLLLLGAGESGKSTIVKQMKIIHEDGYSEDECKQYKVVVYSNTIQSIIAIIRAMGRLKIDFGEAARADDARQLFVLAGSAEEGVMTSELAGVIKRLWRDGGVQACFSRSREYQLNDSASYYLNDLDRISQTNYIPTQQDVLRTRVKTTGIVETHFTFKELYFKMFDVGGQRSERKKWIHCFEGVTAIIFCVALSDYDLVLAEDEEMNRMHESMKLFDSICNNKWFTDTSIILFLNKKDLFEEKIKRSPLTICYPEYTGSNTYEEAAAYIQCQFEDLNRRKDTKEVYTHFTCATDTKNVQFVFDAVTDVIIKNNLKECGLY

`CCCOc1c(Br)cc(C=C2C(=O)NC(=O)NC2=O)cc1OCC` gave HCMV NEC inh -13.6 and GIV-Gai inh 106.6.
Screening Cc1c(CN2CC=C(c3ccccc3)CC2)c(=O)n(-c2ccccc2)n1C returned HCMV NEC inh -25.0.
C[n+]1noc(NC(=O)C(F)(F)F)c1-c1ccccc1 was read as HCMV NEC inh -8.2.
CCn1nc(-c2cccnc2)nc2c(=O)n(C)c(=O)nc1-2 was read as HCMV NEC inh 70.8, GIV-Gai inh 46.0*, GIV Gai FP conf 39.5* and GIV-Gai AS conf 42657.
For CCn1nc(-c2ccccc2)nc2c(=O)n(C)c(=O)nc1-2 the results were HCMV NEC inh 88.3*, GIV-Gai inh 18.6*, GIV Gai FP conf 16.3* and GIV-Gai AS conf 24179.
For CCN(CC)C(=O)c1ccc(NC(=O)Cn2nc(-c3ccccc3)c3ccccc3c2=O)cc1 the results were HCMV NEC inh 4.1 and GIV-Gai inh 107.1.
`CCOC(=O)C1=C(N)Oc2cc(C)n(C)c(=O)c2C12C(=O)N(Cc1ccccc1)c1ccccc12` (stereo not given) gave HCMV NEC inh -44.6 and GIV-Gai inh 96.4.
`CC(C)c1ccc(C=C2C(=O)NC(=O)NC2=O)cc1` gave GIV-Gai inh 32.3*, GIV Gai FP conf 28* and GIV-Gai AS conf 33706.
For O=C1NC(=O)C(=Cc2ccccc2)C(=O)N1 the results were HCMV NEC inh 99.1*, GIV-Gai inh 28.9*, GIV Gai FP conf 31.6* and GIV-Gai AS conf 27826*.
`O=C1NC(=O)N(c2ccccc2)C(=O)/C1=C/c1ccccc1` gave HCMV NEC inh 6.1 and GIV-Gai inh 96.9.
`O=C1NC(=O)C(=Cc2ccc(N3CCOCC3)cc2)C(=O)N1` gave HCMV NEC inh -1.6 and GIV-Gai inh 102.0.
O=C1CSC(c2ccc3c(c2)OCO3)c2c(-c3ccccc3)nn(-c3ccccc3)c2N1 (stereo not given) was read as HCMV NEC inh 1.0 and GIV-Gai inh 102.0.
For CC[N+](CC)=c1ccc2ccc(O)cc2o1 the results were HCMV NEC inh -31.0, GIV-Gai inh 63.0*, GIV Gai FP conf 43* and GIV-Gai AS conf 33013*.
`CCn1cc(CCCC(=O)N2CCC3(CC2)OCCO3)c2ccccc21` gave HCMV NEC inh -10.2 and GIV-Gai inh 105.1.
Screening Cc1cc2n(n1)C(c1cccnc1)Nc1ccccc1-2 (stereo not given) returned GIV-Gai inh 96.6.
For COc1ccc(CCC(=O)N2CCC3(C2)C(=O)Nc2ccc(OC)cc23)cc1 (stereo not given) the results were GIV-Gai inh 106.5.

Entries shown so far that contain a halogen (two):
`CCCOc1c(Br)cc(C=C2C(=O)NC(=O)NC2=O)cc1OCC` gave HCMV NEC inh -13.6 and GIV-Gai inh 106.6.
C[n+]1noc(NC(=O)C(F)(F)F)c1-c1ccccc1 was read as HCMV NEC inh -8.2.

Screening data: PubChem BioAssay, ICCB-Longwood Screening Facility, Harvard Medical School
